The values below are quoted from earlier work in PMC12415477, “Electrostatic interactions influence diazabicyclooctane inhibitor potency against OXA-48-like β-lactamases” (RSC Medicinal Chemistry, 2025).

Chains of the proteins cited; added tags and fusions are not shown. Residues count along the entry.
UniProt Q6XEC0, 23-265 limits assumed: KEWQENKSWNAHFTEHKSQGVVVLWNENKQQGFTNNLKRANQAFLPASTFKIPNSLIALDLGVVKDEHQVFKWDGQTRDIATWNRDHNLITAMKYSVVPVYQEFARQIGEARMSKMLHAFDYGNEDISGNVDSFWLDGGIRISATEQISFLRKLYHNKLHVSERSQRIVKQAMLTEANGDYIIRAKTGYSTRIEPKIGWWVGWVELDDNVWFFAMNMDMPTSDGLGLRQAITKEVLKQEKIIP

In the data set the target is T1, OXA-48 (Klebsiella pneumoniae, UniProt Q6XEC0).
T1 construct: pOPINF-OXA-48^(23-265) (previously cloned as described in Cahill et al); hexahistidine tag with 3C protease site (pOPINF) (N, cleaved yes); made in house; host or cells: E. coli BL21-DE3
As to conditions: read-out: Ki against OXA-48; cited from earlier work.

Each structure is given as a SMILES string. A value given as a limit tells only on which side of the number the result lay.

With `O=C(NNC(=O)[C@@H]1CC[C@@H]2CN1C(=O)N2OS(=O)(=O)O)[C@@H]1CCCNC1` [zidebactam], the inhibition constant (Ki) (in general, a measure of affinity in units of concentration, obtained from inhibition or displacement) was over 800 µM.
